# From patent US20250144186A1, “NOVEL THERAPEUTIC USES OF GARDNERELLA ENDOLYSINS” (priority 2022, published 2025)
# Experiments:
# Gardnerella vaginalis = format: cell-based; settings: N=8, resistance ≥32 μg/mL MDZ, ≥8 μg/mL CLI
# Protocol: (§1) The minimum inhibitory concentration (MIC), which is a standard measure of the activity of antimicrobials, was determined according to the Clinical and Laboratory Standards Institute protocol (2018) Methods for Antimicrobial Susceptibility Testing of Anaerobic Bacteria (Carpenter et al., 2018). […] Controls for growth in the absence of antimicrobials were also included. OD600 was recorded by a microplate reader (Tecan, Grodig, Austria) after incubation at 37° C. for 48 h or, for some fast-growing strains, after incubation for 24 h. Absence of growth was defined as OD600≤0.14. […] MIC readout and MBC99.5 spotting were performed after 72 h incubation for H2B10B11.
# (§2) However, topical intravaginal antibiotic administration is recommended for BV therapy, which allows to reach concentrations of active ingredients in the mg/mL range. […] Abbreviations: n.d., not determined; SJHB, St. Jan Hospital Bruges.
# (§3) MIC90 is defined as the MIC value for 90% of the tested strains. For PM-477 (H2B10), the resistance breakpoint is not defined, therefore a “% resistant” is not defined (n.d.).
# Gardnerella swidsinskii = format: cell-based; settings: N=4, resistance ≥32 μg/mL MDZ, ≥8 μg/mL CLI
# Protocol: as §1, §2, §3
smiles,measurement,setting,value
"CCC[C@@H]1C[C@@H](C(=O)N[C@@H]([C@H]2O[C@H](SC)[C@H](O)[C@@H](O)[C@H]2O)[C@H](C)Cl)N(C)C1 [CLI, clindamycin]",N resistant,Gardnerella vaginalis,0
same,N resistant,Gardnerella swidsinskii,0
